Where “and” joins values, the source holds several entries; their conditions need not be identical. Equal values may be shown once.
Tested on: HCT116 p53WT
Assay: Cell growth inhibition (WST-8), HCT116 p53WT;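 note: compound exposure of the cells lasted 4 days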
Format: cell-based
Details: read-out: HCT116 p53WT IC50, individual determinations and mean ± SD lines, tested form: HCl

With `O=C(NCCC(O)CO)C1NC(Cc2ccccc2)C2(C(=O)Nc3cc(Cl)c(F)cc32)C1c1ccc(F)c(Cl)c1` (stereo not shown) the IC50 was 15.5 µM and 8.51 µM.
